## Cyclic peptide permeability, from CycPeptMPDB

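The data file gives no further conditions (lipid, pH, time, direction or concentration), and values from different papers need not be comparable. Other peptides of the study may be missing here. Peptides that the database sets to -10, its floor, are left out.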

PAMPA measures passive passage through an artificial lipid membrane. Values are log10 P with P in cm/s, so -5 is more permeable than -7.

* CC(C)C[C@@H]1NC(=O)CN(Cc2ccc3c(c2)OCO3)C(=O)[C@H](C)NC(=O)[C@H](CC(C)C)N(C)C(=O)[C@H]2CCCN2C(=O)[C@H](Cc2ccccc2)NC(=O)CN(CC2CCOCC2)C(=O)[C@H](C)NC(=O)[C@H](CC(C)C)N(C)C(=O)[C@H]2CCCN2C1=O: PAMPA -6.27 (log10 cm/s)
* CC(C)C[C@@H]1NC(=O)CN(CC2CCCCC2)C(=O)[C@H]2CCCN2C(=O)[C@H](CC(C)C)NC(=O)[C@H](C)N(C)C(=O)[C@H](CC(C)C)NC(=O)CN(CCCOC(C)C)C(=O)[C@H]2CCCN2C(=O)[C@H](Cc2ccccc2)NC(=O)[C@H](C)N(C)C1=O: PAMPA -7.06 (log10 cm/s)
* CCCCCN1CC(=O)N[C@@H](C)C(=O)N2CCC[C@@H]2C(=O)N(C)[C@@H](CC(C)C)C(=O)N[C@@H](C)C(=O)N(CCCOC(C)C)CC(=O)N[C@@H](CC(C)C)C(=O)N2CCC[C@@H]2C(=O)N(C)[C@@H](CC(C)C)C(=O)N[C@@H](C)C1=O: PAMPA -5.75 (log10 cm/s)
* CCN1CC(=O)N[C@@H](CC(C)C)C(=O)N(C)[C@@H](C)C(=O)N[C@@H](CC(C)C)C(=O)N2CCC[C@@H]2C(=O)N(CC2CCCCC2)CC(=O)N[C@@H](CC(C)C)C(=O)N(C)[C@@H](C)C(=O)N[C@@H](C)C(=O)N2CCC[C@@H]2C1=O: PAMPA -5.77 (log10 cm/s)
* CCCCCN1CC(=O)N[C@@H](C)C(=O)N2CCC[C@@H]2C(=O)N(C)[C@@H](CC(C)C)C(=O)N[C@@H](C)C(=O)N(CC)CC(=O)N[C@@H](CC(C)C)C(=O)N2CCC[C@@H]2C(=O)N(C)[C@@H](CC(C)C)C(=O)N[C@@H](C)C1=O: PAMPA -6.20 (log10 cm/s)
* CCCCCN1CC(=O)N[C@@H](CC(C)C)C(=O)N(C)[C@@H](C)C(=O)N[C@@H](Cc2ccccc2)C(=O)N2CCC[C@@H]2C(=O)N(Cc2ccc3c(c2)OCO3)CC(=O)N[C@@H](CC(C)C)C(=O)N(C)[C@@H](C)C(=O)N[C@@H](CC(C)C)C(=O)N2CCC[C@@H]2C1=O: PAMPA -7.20 (log10 cm/s)
* CC(C)C[C@@H]1NC(=O)CN(CCCOC(C)C)C(=O)[C@H](C)NC(=O)[C@H](CC(C)C)N(C)C(=O)[C@H]2CCCN2C(=O)[C@H](Cc2ccccc2)NC(=O)CN(CC2CCOCC2)C(=O)[C@H](C)NC(=O)[C@H](CC(C)C)N(C)C(=O)[C@H]2CCCN2C1=O: PAMPA -6.48 (log10 cm/s)
* CCCCCN1CC(=O)N[C@@H](C)C(=O)N2CCC[C@@H]2C(=O)N(C)[C@@H](CC(C)C)C(=O)N[C@@H](C)C(=O)N(Cc2ccc3c(c2)OCO3)CC(=O)N[C@@H](CC(C)C)C(=O)N2CCC[C@@H]2C(=O)N(C)[C@@H](CC(C)C)C(=O)N[C@@H](C)C1=O: PAMPA -5.69 (log10 cm/s)

Data: CycPeptMPDB; original report Furukawa et al. 2020, doi:10.1002/anie.202004550.